Data taken from patent US10610582B2, “Compound and method for vaccination and immunisation” (PCI Biotech AS, priority 2013, dated 2020).

Test system: antigen specific CD8 T-cells
Conditions: after 1st and 2nd immunisation; 200 μg OVA + labelled adjuvant (50 μg imiquimod or 10 μg MPLA-SM) combined with PCI (100 μg TPCS2a + light)

| Molecule | % antigen-specific, CD44+ cells of the total CD8+ cells |
| --- | --- |
| Monophosphoryl Lipid A [MPLA] | substantially better immunisation effect than what was achieved using the adjuvants alone |
| CC(C)Cn1cnc2c(N)nc3ccccc3c21 [imiquimod, 3-(2-methylpropyl)-3,5,8-triazatricyclo[7.4.9.0^2,6]trideca-1(9),2(6),4,7,10,12-hexaen-7-amine] | substantially better immunisation effect than what was achieved using the adjuvants alone |
